Series [1] addresses T1, human P-gp (Homo sapiens, UniProt P08183). Set-up: expressed in transfected cells; host or cells: IPEC-J2 (porcine intestinal epithelial cells), previously established IPEC-J2 MDR1 line; method as in PMID 27194478. Particulars: MDCK II MDR1 cell monolayers; cited from earlier work.
The target in series [2] is T1, human P-gp. Kind of series: Bidirectional transport across IPEC-J2 MDR1 cell monolayers. The format is in vitro ADME. Set-up: expressed in transfected cells; host or cells: IPEC-J2 (porcine intestinal epithelial cells), previously established IPEC-J2 MDR1 line. Particulars: Figure 5 comparison series. The protocol: The cell monolayers were washed and pre-incubated in transport buffer consisting of 10 mM HEPES, 0.05% BSA and 0.038% sodium bicarbonate in HBSS pH 7.4 for 15 min at 37 °C on a shaking table (Unimax 2010, Heidolph, Schwabach, Germany) with a rotation of 75–90 rpm. The buffer was removed, and the transport experiments were initiated by the addition of donor solution containing radio-labelled compound in transport buffer in a concentration of 0.5 or 1 μ Ci/mL to either the apical or the basolateral chamber. […] Receiver samples were collected after 15, 30, 45, 60, 90 and 120 min from the basolateral (100 µL) or the apical chamber (50 µL), respectively.
Based on data from transport experiments, the apparent permeability coefficients (Papp) were calculated using Equation (1):(1) Papp = J/C0 = Qt/C0At where J denotes the steady-state flux (nmol·cm^−2·min^−1), C0 is the initial concentration in the donor compartment, A is the cross-sectional area of the permeable inserts (1.13 cm^2) and Qt represents the accumulated amount of drug in the receiver compartment at time t in minutes (corrected for the dilution arising from replacement of the sampled volume with blank transport buffer).

Protein sequences, listed by entry. Tags and fused reporters are not part of them.
UniProt P08183, whole entry: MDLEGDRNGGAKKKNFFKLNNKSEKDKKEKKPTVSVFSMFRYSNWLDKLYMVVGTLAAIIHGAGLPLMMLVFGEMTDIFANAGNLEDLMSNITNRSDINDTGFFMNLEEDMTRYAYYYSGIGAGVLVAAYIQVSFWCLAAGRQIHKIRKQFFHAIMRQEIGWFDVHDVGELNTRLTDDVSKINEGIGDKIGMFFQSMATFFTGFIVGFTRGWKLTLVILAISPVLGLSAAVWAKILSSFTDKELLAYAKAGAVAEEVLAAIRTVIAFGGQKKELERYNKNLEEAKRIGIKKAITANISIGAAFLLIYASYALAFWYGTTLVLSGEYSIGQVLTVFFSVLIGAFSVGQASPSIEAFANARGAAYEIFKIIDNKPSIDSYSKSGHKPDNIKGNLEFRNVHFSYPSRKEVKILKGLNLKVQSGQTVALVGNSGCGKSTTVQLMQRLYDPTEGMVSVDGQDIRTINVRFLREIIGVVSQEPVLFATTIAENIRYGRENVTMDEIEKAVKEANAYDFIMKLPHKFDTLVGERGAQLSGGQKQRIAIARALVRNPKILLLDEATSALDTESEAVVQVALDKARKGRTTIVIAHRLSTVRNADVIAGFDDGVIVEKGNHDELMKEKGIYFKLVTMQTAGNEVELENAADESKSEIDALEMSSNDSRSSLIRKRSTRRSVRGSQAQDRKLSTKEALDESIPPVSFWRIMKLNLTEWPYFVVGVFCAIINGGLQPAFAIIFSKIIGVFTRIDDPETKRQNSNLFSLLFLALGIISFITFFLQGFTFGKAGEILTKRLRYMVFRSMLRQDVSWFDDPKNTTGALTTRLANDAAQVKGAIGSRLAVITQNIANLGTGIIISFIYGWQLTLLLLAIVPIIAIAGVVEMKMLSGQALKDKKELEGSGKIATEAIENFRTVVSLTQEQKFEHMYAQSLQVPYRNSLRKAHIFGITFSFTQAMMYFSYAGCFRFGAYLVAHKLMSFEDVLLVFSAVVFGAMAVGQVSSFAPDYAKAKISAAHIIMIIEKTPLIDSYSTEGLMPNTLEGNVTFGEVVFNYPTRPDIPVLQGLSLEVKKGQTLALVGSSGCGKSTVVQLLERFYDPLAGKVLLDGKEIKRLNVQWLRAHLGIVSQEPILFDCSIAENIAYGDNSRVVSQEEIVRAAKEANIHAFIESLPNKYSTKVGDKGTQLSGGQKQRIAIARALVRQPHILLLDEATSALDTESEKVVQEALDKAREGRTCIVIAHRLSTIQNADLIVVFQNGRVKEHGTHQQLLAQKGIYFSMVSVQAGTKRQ

The text below walks through data of PMC7408396, “IPEC-J2 rMdr1a, a New Cell Line with Functional Expression of Rat P-glycoprotein Encoded by Rat Mdr1a for Drug Screening Purposes” (Pharmaceutics, 2020).

Molecules are shown by their SMILES. Values joined by “and” are separate entries in the source; they are usually repeats but may differ in a detail not shown here. Equal values may be shown once.

The term efflux ratio denotes a quotient of directional permeabilities that is used to spot active efflux.

Consider `Cc1cc2c(s1)Nc1ccccc1N=C2N1CCN(C)CC1` [olanzapine], for which the “efflux ratio (ER)” value at human P-gp [1] was > 3 and 4.9. For the same compound, the efflux ratio at human P-gp [2] came out at 1.8.
